Broadly, the Ki is a dissociation constant, usually derived from enzyme kinetics or from competition with a known ligand. Lower therefore signals tighter binding. The term IC50 denotes the concentration that inhibits the measured activity by half. Low values mean inhibition by little substance, high ones a need for much substance.

Amino acid sequences for entries named in this document (tags omitted).
UniProt P16257, whole entry, looked up: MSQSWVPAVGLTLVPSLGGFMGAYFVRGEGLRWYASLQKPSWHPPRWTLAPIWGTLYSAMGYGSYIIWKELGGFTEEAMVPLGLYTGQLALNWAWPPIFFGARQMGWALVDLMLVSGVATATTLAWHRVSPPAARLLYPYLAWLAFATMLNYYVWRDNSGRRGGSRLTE

Molecules are shown by their SMILES.

One assay concerns the target T1, Translocator protein (Rattus norvegicus, UniProt P16257).
`CN(C)C(=O)OC1=C(c2ccccc2)Oc2cc3ccccc3cc2-n2cccc21` had a Ki of 14.5 nM.

The subject of another assay is Y-1. The experiment in a line: Stimulation of steroid (pregnenolone) biosynthesis in mouse Y-1 adrenocortical cells at 40 uM.
In turn, `CN1C(=O)CN=C(c2ccc(Cl)cc2)c2cc(Cl)ccc21` yielded a Production of 29.5 ng 2hr-1.
For `CN(C)C(=O)OC1=C(c2ccccc2)Sc2c(Cl)cccc2-n2cccc21`, the Production was 29.3 ng 2hr-1.
With `CN(C)C(=O)OC1=C(c2ccc3ccccc3c2)Oc2ccccc2-n2cccc21`, the Production amounted to 27.5 ng 2hr-1.
For `O=C1CN=C(c2ccccc2Cl)c2cc([N+](=O)[O-])ccc2N1`, the Production came to 22.1 ng 2hr-1.
The same measure, in the same setting: as for `CCN(CC)C(=O)OC1=C(c2ccc(C)cc2)Oc2ccccc2-n2cccc21`, the figure is 40.4 ng 2hr-1; as for `CCC(C)N(C)C(=O)c1cc2ccccc2c(-c2ccccc2Cl)n1` (stereo unspecified), 33.2 ng 2hr-1; as for `CC(=O)OC1=C(c2ccc(C)cc2)Oc2ccccc2-n2cccc21`, 29.3 ng 2hr-1.

A further assay addresses T1, Translocator protein. This is another data set of the same source.
As to `Cc1ccc(C2=C(OC(=O)N(C)C)c3cccn3-c3ccccc3O2)cc1`, 1.3 nM corresponded to half-maximal inhibition (IC50).
Take `CN(C)C(=O)OC1=C(c2ccccc2)Oc2ccccc2-n2cccc21`: the IC50 amounted to 5.1 nM.
Same read-out and setting: as for `CN(C)C(=O)OC1=C(c2ccccc2)Oc2cc3ccccc3cc2-n2cccc21`, the figure is 37.3 nM.

Values taken from ChEMBL document CHEMBL1129620 (J Med Chem, 1996).
